As a reminder, the IC50 is the concentration that gives 50% inhibition.

Amino acid sequences for entries named in this document (tags omitted).
UniProt Q8NER1, whole entry: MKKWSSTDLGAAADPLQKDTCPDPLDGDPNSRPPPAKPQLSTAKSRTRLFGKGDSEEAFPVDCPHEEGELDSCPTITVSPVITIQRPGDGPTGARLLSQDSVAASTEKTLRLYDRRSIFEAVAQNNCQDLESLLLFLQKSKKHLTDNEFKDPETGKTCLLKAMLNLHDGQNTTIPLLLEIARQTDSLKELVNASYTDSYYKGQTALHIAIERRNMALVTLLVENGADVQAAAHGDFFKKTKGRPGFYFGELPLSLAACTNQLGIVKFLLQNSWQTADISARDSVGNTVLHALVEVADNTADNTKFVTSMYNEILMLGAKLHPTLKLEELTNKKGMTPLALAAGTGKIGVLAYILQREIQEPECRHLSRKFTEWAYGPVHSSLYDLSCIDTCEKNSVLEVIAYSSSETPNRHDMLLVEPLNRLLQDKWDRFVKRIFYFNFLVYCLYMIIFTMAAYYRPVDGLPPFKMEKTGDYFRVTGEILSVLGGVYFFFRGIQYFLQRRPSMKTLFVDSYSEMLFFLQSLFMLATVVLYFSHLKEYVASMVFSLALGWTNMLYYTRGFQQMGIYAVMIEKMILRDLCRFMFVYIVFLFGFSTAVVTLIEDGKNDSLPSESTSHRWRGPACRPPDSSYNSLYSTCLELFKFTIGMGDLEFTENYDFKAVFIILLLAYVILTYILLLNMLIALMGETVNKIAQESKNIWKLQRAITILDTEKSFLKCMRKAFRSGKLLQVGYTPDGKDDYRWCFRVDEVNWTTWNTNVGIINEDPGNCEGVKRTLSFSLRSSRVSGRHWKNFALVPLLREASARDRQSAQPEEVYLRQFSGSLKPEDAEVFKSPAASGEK

The target of this experiment is T1, human TRPV1 (Homo sapiens, UniProt Q8NER1).
T1 construct: expressed in transfected cells
The experiment is described as follows: Ca2+ imaging in CHO K1 cells expressing human TRPV1, CAP-induced. Format: cell-based.

In turn, GLP-1(7–36) gave a LogIC50 (CAP 100 nM, text in picture Fig. 5h) of 2.252. For the same substance, under “read-out: IC50 for the calcium response, CAP 100 nM, logistic fit, ± Std. Error”, the IC50 amounted to 0.179 µM.

(Values after article PMC11612315, “GLP-1 and its derived peptides mediate pain relief through direct TRPV1 inhibition without affecting thermoregulation” (Experimental & Molecular Medicine, 2024).)
